Test results published in ChEMBL document CHEMBL5518200, “Heterocyclic-Modified Imidazoquinoline Derivatives: Selective TLR7 Agonist Regulates Tumor Microenvironment against Melanoma” (J Med Chem, 2024).
Active and inactive are the calls of the source. The rule behind the calls is not given here.

Protein sequences, listed by entry. Tags and fused reporters are not part of them.
UniProt O60603, whole entry: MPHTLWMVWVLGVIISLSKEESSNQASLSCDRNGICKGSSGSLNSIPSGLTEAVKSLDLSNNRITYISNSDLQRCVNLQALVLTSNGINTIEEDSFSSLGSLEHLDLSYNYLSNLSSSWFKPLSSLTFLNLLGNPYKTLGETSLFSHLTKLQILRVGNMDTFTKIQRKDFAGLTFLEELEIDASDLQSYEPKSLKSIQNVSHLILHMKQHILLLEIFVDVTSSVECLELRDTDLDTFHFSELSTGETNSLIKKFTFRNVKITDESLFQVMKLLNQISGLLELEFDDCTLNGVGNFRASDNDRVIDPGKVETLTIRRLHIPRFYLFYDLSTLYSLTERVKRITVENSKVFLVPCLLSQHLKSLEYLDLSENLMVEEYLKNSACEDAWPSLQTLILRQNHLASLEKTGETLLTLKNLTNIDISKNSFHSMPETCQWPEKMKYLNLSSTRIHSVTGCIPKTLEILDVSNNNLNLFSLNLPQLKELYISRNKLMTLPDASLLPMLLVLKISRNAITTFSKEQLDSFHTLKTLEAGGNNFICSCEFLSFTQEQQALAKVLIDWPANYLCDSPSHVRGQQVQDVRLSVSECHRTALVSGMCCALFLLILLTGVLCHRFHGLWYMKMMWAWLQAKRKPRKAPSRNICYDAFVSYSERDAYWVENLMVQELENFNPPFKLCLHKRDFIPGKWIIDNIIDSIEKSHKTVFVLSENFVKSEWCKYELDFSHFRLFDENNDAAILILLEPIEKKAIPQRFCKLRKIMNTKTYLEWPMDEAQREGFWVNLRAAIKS
UniProt O00206, whole entry: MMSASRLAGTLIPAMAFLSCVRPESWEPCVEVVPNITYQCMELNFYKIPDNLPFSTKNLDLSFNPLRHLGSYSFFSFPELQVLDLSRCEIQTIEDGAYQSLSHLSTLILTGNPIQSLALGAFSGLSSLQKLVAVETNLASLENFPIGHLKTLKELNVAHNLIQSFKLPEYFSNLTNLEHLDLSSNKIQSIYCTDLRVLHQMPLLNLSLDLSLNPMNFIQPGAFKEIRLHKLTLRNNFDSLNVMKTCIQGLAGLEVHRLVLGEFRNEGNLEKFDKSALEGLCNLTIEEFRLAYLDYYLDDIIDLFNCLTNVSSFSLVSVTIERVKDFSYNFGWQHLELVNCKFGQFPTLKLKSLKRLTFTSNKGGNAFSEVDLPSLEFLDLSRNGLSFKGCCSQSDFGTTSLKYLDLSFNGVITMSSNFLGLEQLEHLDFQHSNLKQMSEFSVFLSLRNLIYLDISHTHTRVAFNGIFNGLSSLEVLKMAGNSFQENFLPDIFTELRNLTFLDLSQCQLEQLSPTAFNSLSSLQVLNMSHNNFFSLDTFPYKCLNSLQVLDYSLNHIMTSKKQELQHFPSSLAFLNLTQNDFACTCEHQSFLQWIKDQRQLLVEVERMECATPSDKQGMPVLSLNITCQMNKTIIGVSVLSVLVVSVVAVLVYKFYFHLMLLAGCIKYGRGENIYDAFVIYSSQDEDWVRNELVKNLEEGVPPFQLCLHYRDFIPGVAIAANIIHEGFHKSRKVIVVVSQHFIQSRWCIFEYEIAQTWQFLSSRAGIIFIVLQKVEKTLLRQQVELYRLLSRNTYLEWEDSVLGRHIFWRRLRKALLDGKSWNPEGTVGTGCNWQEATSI

Experiments:
Format in all cases: cell-based
[1] = biological target: T1, Toll-like receptor 7 (Mus musculus) (UniProt P58681); test: Agonist activity at TLR7 in mouse BMDC cells assessed as activation of TLR7 downstream signaling pathway by measuring increase in JNK phosphorylation at 1 uM measured after 0 to 120 mins by Western blot analysis; settings: filed as agonist, time 0-120 min
T1 sequence (whole entry): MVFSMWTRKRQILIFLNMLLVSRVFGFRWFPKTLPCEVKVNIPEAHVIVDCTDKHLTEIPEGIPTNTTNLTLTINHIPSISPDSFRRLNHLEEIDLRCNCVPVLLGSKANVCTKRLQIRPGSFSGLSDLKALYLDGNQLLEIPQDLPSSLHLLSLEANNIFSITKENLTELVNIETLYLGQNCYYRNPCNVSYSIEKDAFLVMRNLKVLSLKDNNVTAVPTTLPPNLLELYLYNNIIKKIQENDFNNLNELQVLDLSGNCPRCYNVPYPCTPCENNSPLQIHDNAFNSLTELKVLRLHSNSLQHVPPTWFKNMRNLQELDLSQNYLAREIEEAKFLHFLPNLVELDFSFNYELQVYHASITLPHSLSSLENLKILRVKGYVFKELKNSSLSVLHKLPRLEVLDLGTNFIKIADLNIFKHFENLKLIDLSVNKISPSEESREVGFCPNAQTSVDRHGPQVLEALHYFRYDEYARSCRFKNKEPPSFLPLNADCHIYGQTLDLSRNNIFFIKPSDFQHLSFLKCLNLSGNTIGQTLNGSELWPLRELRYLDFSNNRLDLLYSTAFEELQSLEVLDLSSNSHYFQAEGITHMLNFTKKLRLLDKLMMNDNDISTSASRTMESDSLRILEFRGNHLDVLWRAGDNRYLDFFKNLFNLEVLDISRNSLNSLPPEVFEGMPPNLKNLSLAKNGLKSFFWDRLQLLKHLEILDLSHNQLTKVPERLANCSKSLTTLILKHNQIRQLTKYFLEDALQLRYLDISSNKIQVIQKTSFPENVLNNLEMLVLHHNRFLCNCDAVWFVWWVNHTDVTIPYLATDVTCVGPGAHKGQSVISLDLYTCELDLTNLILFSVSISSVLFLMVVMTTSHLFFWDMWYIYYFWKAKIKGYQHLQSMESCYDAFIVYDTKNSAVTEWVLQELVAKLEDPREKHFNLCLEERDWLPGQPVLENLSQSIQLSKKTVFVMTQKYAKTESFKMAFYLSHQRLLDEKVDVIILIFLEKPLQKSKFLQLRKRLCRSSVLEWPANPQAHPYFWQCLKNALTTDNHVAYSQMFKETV

[2] = biological target: T2, Toll-like receptor 3 (Homo sapiens) (UniProt O15455); test: Agonist activity at TLR3 in HEK-Blue hTLR3 cells expressing NF-kappaB/AP-1 inducible SEAP assessed as increase in SEAP activity at 0.05 to 100 uM incubated for 24 hrs by QUANTI-Blue assay; settings: dose 0.05-100 µM
T2 sequence (whole entry): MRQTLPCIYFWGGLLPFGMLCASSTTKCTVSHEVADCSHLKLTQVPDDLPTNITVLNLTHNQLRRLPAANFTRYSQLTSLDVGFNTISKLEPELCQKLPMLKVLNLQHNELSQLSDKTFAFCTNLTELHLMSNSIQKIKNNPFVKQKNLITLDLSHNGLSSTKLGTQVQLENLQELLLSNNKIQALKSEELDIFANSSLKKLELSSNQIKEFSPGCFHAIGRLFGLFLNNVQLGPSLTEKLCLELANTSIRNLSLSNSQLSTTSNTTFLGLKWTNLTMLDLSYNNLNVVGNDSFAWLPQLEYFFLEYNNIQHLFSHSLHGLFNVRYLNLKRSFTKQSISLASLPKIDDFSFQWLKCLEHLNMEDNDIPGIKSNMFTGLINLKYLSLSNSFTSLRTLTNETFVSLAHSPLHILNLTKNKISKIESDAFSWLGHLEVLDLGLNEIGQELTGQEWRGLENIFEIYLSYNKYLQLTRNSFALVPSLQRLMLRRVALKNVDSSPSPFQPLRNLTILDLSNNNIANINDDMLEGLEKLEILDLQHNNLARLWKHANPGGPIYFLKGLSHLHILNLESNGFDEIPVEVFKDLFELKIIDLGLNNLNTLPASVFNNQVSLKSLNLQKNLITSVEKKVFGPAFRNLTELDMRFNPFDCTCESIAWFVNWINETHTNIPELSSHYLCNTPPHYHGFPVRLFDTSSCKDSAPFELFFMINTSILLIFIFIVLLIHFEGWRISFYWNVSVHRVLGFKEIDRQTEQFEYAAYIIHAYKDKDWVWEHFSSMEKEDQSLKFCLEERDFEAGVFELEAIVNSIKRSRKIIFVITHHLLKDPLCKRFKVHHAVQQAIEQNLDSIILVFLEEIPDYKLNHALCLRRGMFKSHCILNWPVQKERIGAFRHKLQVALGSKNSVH

[3] = biological target: T1, Toll-like receptor 7 (Mus musculus); test: Agonist activity at TLR7 in mouse BMDC cells assessed as increase in TLR7-MyD88 interaction by measuring coimmunoprecipitation at 1 uM by immunoblot analysis; settings: filed as agonist, time 0-120 min
[4] = biological target: T1, Toll-like receptor 7 (Mus musculus); test: Agonist activity at TLR7 in mouse BMDC cells assessed as activation of TLR7 downstream signaling pathway by measuring increase in IKK alpha/beta phosphorylation at 1 uM measured after 0 to 120 mins by Western blot analysis; settings: filed as agonist, time 0-120 min
[5] = biological target: Toll-like receptor 2 (Homo sapiens) (UniProt O60603); test: Agonist activity at TLR2 in HEK-Blue hTLR2 cells expressing NF-kappaB/AP-1 inducible SEAP assessed as increase in SEAP activity at 0.05 to 100 uM incubated for 24 hrs by QUANTI-Blue assay; settings: dose 0.05-100 µM
[6] = biological target: T1, Toll-like receptor 7 (Mus musculus); test: Agonist activity at TLR7 in mouse BMDC cells assessed as activation of TLR7 downstream signaling pathway by measuring increase in p38 phosphorylation at 1 uM measured after 0 to 120 mins by Western blot analysis; settings: filed as agonist, time 0-120 min
[7] = biological target: T1, Toll-like receptor 7 (Mus musculus); test: Agonist activity at TLR7 in mouse BMDC cells assessed as activation of TLR7 downstream signaling pathway by measuring increase in ERK1/2 phosphorylation at 1 uM measured after 0 to 120 mins by Western blot analysis; settings: filed as agonist, time 0-120 min
[8] = biological target: Toll-like receptor 4 (Homo sapiens) (UniProt O00206); test: Agonist activity at TLR4 in HEK-Blue hTLR4 cells expressing NF-kappaB/AP-1 inducible SEAP assessed as increase in SEAP activity at 0.05 to 100 uM incubated for 24 hrs by QUANTI-Blue assay; settings: dose 0.05-100 µM
[9] = biological target: T1, Toll-like receptor 7 (Mus musculus); test: Agonist activity at TLR7 in mouse BMDC cells assessed as activation of TLR7 downstream signaling pathway by measuring increase in p65 phosphorylation at 1 uM measured after 0 to 120 mins by Western blot analysis; settings: filed as agonist, time 0-120 min
[10] = biological target: T1, Toll-like receptor 7 (Mus musculus); test: Agonist activity at TLR7 in mouse BMDC cells assessed as activation of TLR7 downstream signaling pathway by measuring increase in IRF7 phosphorylation at 1 uM measured after 0 to 24 hrs by Western blot analysis; settings: filed as agonist, time 0-24 hrs

Activity [1]: Active | Activity [2]: inactive | Activity [3]: Dose-Dependent Effect | Activity [4]: Active | Activity [5]: inactive | Activity [6]: Active | Activity [7]: Active | Activity [8]: inactive | Activity [9]: Active | Activity [10]: Active
Structure (SMILES): CCCCc1nc2c(N)nc3ccccc3c2n1CC1CCOC1 (stereo not given)
